According to PMC9578707, “Identification of orphan ligand-receptor relationships using a cell-based CRISPRa enrichment screening platform” (eLife, 2022):
pKd: −log10 of the molar value.

Biological target: TAFA-5 (human) (UniProt Q7Z5A7)
Assay: SPR; Biacore T100; biotinylated ligand captured on a streptavidin (SA) Series S chip (~100-200 RU); non-biotinylated analyte in twofold dilutions in HBS-P+; 60 s injection at 30 ul/min, 240 s dissociation; regeneration 2 x 10 sec 2M MgCl2; KD from the fit at equilibrium (steady state)

pKd: 4.63
Substance: RNF167-ECD (transmembrane PA-TM-RING E3 ligase RNF167, extracellular domain) (from UniProt Q9H6Y7 25-350) (domain or fragment)
